# Earlier results as cited in patent US5304113A, “Method of eradicating infectious biological contaminants” (The MCW Research Foundation, Inc., priority 1990, dated 1994).
# Details: comparison dye; cited from earlier work
compound,measurement,value
CC1(C)C(/C=C/C=C/C=C/C=C2\N(CCCCS(=O)(=O)O)c3ccc4ccccc4c3C2(C)C)=[N+](CCCCS(=O)(=O)[O-])c2ccc3ccccc3c21 [indocyanine green],"LD50 (mouse), for comparison",70 mg/kg
